Test: in vivo
Details: mouse, intravenous injection into the vein of the tail

CC1(C)S[C@@H]2[C@H](NC(=O)[C@H](NC(=O)N3CCN(S(C)(=O)=O)C3=O)c3ccccc3)C(=O)N2[C@H]1C(=O)O [Example 4, Sodium D(-)-α-[(3-methylsulphonyl-imidazolidin-2-on-1-yl)-carbonylamino]-benzylpencillin]
LD50: 3000 mg/kg

Source: patent US3983105A, “Penicillins” (Bayer Aktiengesellschaft, priority 1971, dated 1976)
